The values below come from patent US20210317204A1 (ALMAC DISCOVERY, published 2021).

Experiment [1] has as its target T1, human ROR1 on the surface of human cancer cell lines (human, UniProt Q01973).
T1 construct: whole, on cells; the cell line is named under assay; also called cell surface ROR1
Kind of experiment: flow cytometry on four cell lines at 66 nM, PE-anti-human; signal not split between ROR1 and EGFR. Background: A flow cytometer gives signals particle by particle.

For experiment [2], the target named is T2, human EGFR on the surface of human cancer cell lines (human).
T2 construct: whole, on cells; also called cell surface EGFR
The description is as above.

B1: P3A1hFc7C12 bispecific molecule (bispecific antibody)
chain: TRVDQTPRTATKETGESLTINCVLTDTSYGLYSTSWFRKNPGTTDWERMSIGGRYVESVNKGAKSFSLRIKDLTVADSATYYCKAREARHPWLRQWYDGAGTVLTVNGGGGSGGGGSGGGGS[human IgG1 Fc with changes cut from this listing]GGGGSGGGGSGGGGSGGGGSGGGGSAVQLVESGGGSVQAGGSLRLT[about 100 residues cut from this listing]WGQGTQVTVSSG
notes: also called P3A1 hFc (S252C) 7C12
Take B1: the binding result in experiment [1] and in experiment [2] was “binds” throughout.
